This passage reports activity change, negative = cytotoxicity results from PubChem BioAssay (Tox21).

Where “and” joins values, the source holds several entries; their conditions need not be identical. Identical values can stand only once. The entries are a selection whose mix differs from that of the whole data set. Results filed as inconclusive are left out. Calls of active or inactive are those of the source. Calls come from the whole dose curve; as a rule, active = well fitted cell-killing curve with a large enough effect in the repeat runs; inconclusive = weak or mixed curves, or effect the other way; inactive = flat fitted curve, though single readings scatter.
% is set by controls: 0 for no effect and ±100 for the full control effect.

The first assay can be described thus: cAMP Responsive Elements (CRE) small molecule agonists, cell-based qHTS assay: qHTS cell viability counter screen (AID 2060914). Note: nearly all actives have a fitted effect of over 50% in size. Particulars: CRE-bla HEK293T viability, CellTiter-Glo luminescence, 5 h; at 42.5 µM (top of the series). The source says: National Center for Advancing Translational Sciences [NCATS]
Division of Preclinical Innovation [DPI]
U.S. Environmental Protection Agency [EPA]
National Institutes of Environmental Health Sciences [NIEHS]
National Toxicology Program [NTP]
U.S. Food and Drug Administration [FDA]
CREB (cyclic-AMP Responsive Element Binding Protein) is a cellular transcription factor. It binds to certain DNA sequences called cAMP Responsive Elements (CRE) and regulates the transcription of the genes. […] This cell line can be used to find agonists/antagonists of the cyclic AMP signaling pathway. The activation of the report gene under culture conditions can be detected by fluorescence intensity. This cell line has been used to screen the Tox21 10K compound library to identify agonists that induce oxidative stress. The cytotoxicity of the Tox21 compound library against the CRE-bla cell line was tested in parallel by measuring the cell viability using CellTiter-Glo assay (Promega, Madison, WI) in the same wells.
Tox21 Assay Protocol Summary:
CRE-bla Hek 293T cells were suspended in assay medium (DMEM containing 10% dialyzed FBS, 0.1 mM NEAA, 1 mM sodium pyruvate and 25 mM HEPES) and dispensed at 2,000 cells/5 uL /well into 1536-well black wall/clear bottom plates using a Multidrop Combi (ThermoFisher Scientific, Waltham, MA) dispenser. After the assay plates were incubated at 37 C/5% CO2 for 18 hrs, 23 nL of compounds dissolved in DMSO, positive controls or DMSO only was transferred to the assay plate by a pintool workstation (Kalypsys, San Diego, CA). After the plates were incubated at 37 C/5% CO2 for 3 hrs, 1 uL of LiveBLAzer B/G FRET substrate (Invitrogen, Carlsbad, CA) was added to each well using Bioraptr Flying Reagent Dispenser (FRD, Aurora Discovery, San Diego, CA). The plates were incubated at room temperature for 2 h, then fluorescence intensities were measured using an Envision plate reader (PerkinElmer, Shelton, CT) at Excitation 405nm, Emission 460nm and 530nm. The % activity was determined from the ratio of 460nm/530nm. For cell viability readout that measures cytotoxicity, 4 uL /well of CellTiter-Glo reagent was added into the assay plates using Bioraptr FRD. After 30 min incubation at room temperature, the luminescence intensity in the assay plates was measured using a ViewLux (PerkinElmer, Shelton, CT) plate reader.
In general terms: qHTS replaces the single test concentration by a dilution series.
`OCCSCCO`: the activity change, negative = cytotoxicity is inactive: -8.88%.

Staying with this assay, now noted: CRE-bla HEK293T viability, CellTiter-Glo luminescence, 5 h; at 92.4 µM (top of the series).
With `OCCSCCO`, the activity change, negative = cytotoxicity is inactive: -0.107%.

The assay is the same for the next values; noted with them: CRE-bla HEK293T viability, CellTiter-Glo luminescence, 5 h; at 92.4 µM (top of the series) unless noted.
For `N=C(N)N[N+](=O)[O-]`, the activity change, negative = cytotoxicity is inactive: 4.19%.
Same read-out and setting: in the case of `Nc1cc([N+](=O)[O-])cc([N+](=O)[O-])c1O` it was inactive: -11.1%.
Still for that read-out and setting: in the case of `Cc1ccc([N+](=O)[O-])c([N+](=O)[O-])c1` it was inactive: 3.67%; in that of `[NH4+].[O-][Cl+3]([O-])([O-])[O-]`, inactive: -3.58%.
Still for that read-out and setting: for `CP(=O)(O)OCCC[Si](O)(O)O` the value was inactive: -16.4%; for `CC(C)N(CCO)C(C)C`, inactive: 6.33%.
For the compound `N#CBr`, the activity change, negative = cytotoxicity is inactive: -7.13%.
Still for that read-out and setting: for `Cc1ccc([N+](=O)[O-])cc1[N+](=O)[O-]` the value was inactive: -2.25% and inactive: -1.43%; for `CCOP(=O)(CC)OCC`, inactive: 1.07%.
Same read-out and setting: in the case of `CN(C)CCCl` it was inactive: -1.32%; in that of `C/C1=C2N=C(/C=C3N=C(/C(C)=C4\[N-][C@@](C)([C@@H]5N=C1[C@](C)(CCC(=O)NC[C@@H](C)OP(=O)([O-])O[C@H]1[C@@H](O)[C@@H](n6cnc7cc(C)c(C)cc76)O[C@@H]1CO)[C@H]5CC(N)=O)[C@@](C)(CC(N)=O)[C@@H]4CCC(N)=O)[C@@](C)(CC(N)=O)[C@@H]\3CCC(N)=O)C(C)(C)[C@@H]/2CCC(N)=O.[C-]#N.[Co+3]`, inactive: 0.407% [at 42.5 µM].
Same read-out and setting: for `CC(C)OP(C)(=O)OC(C)C` the value was inactive: -4.92% and inactive: -0.236%.
On to `CCOP(=O)(CC)Oc1ccc([N+](=O)[O-])cc1` (stereo unspecified), for which the activity change, negative = cytotoxicity is inactive: -12.6% [at 42.5 µM].
On the same count and under the same terms, in the case of `O=[N+]([O-])OCC(CO[N+](=O)[O-])(CO[N+](=O)[O-])CO[N+](=O)[O-]` it was inactive: 2.95%; in that of `Cc1c([N+](=O)[O-])cccc1[N+](=O)[O-]`, inactive: 9.61% and inactive: 6.07%; in that of `COP(C)(=O)OC`, inactive: -12.6% and inactive: 5.86%.
The same measure, in the same setting: in the case of `CCN(CC)CCCl` it was inactive: 1.05%.
Still for that read-out and setting: for `COc1ccc([N+](=O)[O-])cc1[N+](=O)[O-]` the value was inactive: 0.176%.
Turning to `O=[N+]([O-])[O-].[NH4+]`, the activity change, negative = cytotoxicity was inactive: 1.68% and inactive: -3.08%.
